Measurements: PubChem BioAssay (NCI)
Only a part is listed here, and it is no random draw. Calls of active or inactive are those of the source. Rule as the data show it: active = growth inhibition above about 70%; inactive = the rest.

Assay: NCI Yeast Anticancer Drug Screen. Data for the sgs1 mgt1 strain (AID 161);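 also: 0% = growth of cultures given vehicle only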
Details: S. cerevisiae sgs1 mgt1 strain, at 50.0 µM, hits give high values

Structure (SMILES) | growth inhibition
O=C1C(Cl)=C(NCCCl)C(=O)C(Cl)=C1NCCCl | inactive: 10.4%
O=C(CSc1ccccn1)c1ccccc1 | inactive: 43.4%
NC1=NP(=O)(Oc2ccccc2)N=C(Nc2ccccc2)N1 (stereo not drawn) | inactive: 8.3%
CCCCOP(=O)(OCCCC)N1CCCC1C(=O)O (stereo not drawn) | inactive: -8.85%
O=C(OCc1ccc([N+](=O)[O-])cc1)N(CCCl)CCCl | inactive: 24.3%
CC1COP(N(C(C)C)C(C)C)O1 (stereo not drawn) | inactive: -3.2%
NP(=O)(OCCCCO)N(CCCl)CCCl (stereo not drawn) | inactive: 9.4%
ClCCNCc1ccc2c(c1)OCO2 | inactive: -23.1%
FC(Cl)C(F)(F)Sc1ccc(Cl)cc1 (stereo not drawn) | inactive: -24.6%
O=C1CCC(C(=O)OC2CN3CCC2CC3)C(=O)N1 (stereo not drawn) | inactive: 21.1%
ClCCN1CN(CCCl)c2ccccc21 | inactive: -39.4%
Cc1c([N+](=O)[O-])c([N+](=O)[O-])c(CCn2cnc3c(N(CCO)CCO)ncnc32)c([N+](=O)[O-])c1[N+](=O)[O-] | inactive: 3.75%
C[n+]1cc(-c2ccccc2)cc2ccccc21 | inactive: 38.9%
O=[N+]([O-])c1cccc(S(=O)(=O)N(CCCl)CCCl)c1 | inactive: 4.65%
O=C(O)C(CCCNc1ccc([N+](=O)[O-])cc1[N+](=O)[O-])Nc1ccc([N+](=O)[O-])cc1[N+](=O)[O-] (stereo not drawn) | inactive: 43.7%
[N-]=[N+]=Nc1cc(N)c([N+](=O)[O-])cc1[N+](=O)[O-] | inactive: 21.4%
CN(C)NC(=O)NP(=O)(NC(=O)NN(C)C)NC(=O)NN(C)C | inactive: 10.3%
N/C=N/P(=O)(Oc1ccccc1)Oc1ccccc1 | inactive: 9.25%
C=CCC[P+](C)(c1ccccc1)c1ccccc1 | inactive: -2.45%

Structure (SMILES) | growth inhibition
BrCCN(CCBr)c1cccc2ccccc12 | inactive: 5.3%
[O-]/[N+](C/[N+]([O-])=N/O)=N\O | inactive: 22.6%
CCCCOP(OCCCC)OCCCC | inactive: -16.9%
O=P1(Nc2ncccn2)OC(CCl)=NC1c1ccc(C2N=C(CCl)OP2(=O)Nc2ncccn2)cc1 (stereo not drawn) | inactive: -3.2%
O=C(OCc1ccc([N+](=O)[O-])cc1)Oc1c(Cl)cc([N+](=O)[O-])cc1[N+](=O)[O-] | inactive: 5.2%
CN(C)P(N)(Cl)(c1ccccc1)c1ccccc1 | inactive: -9.5%
C[Si](C)(C)CCCNCCCl | inactive: 24.9%
C[C@@H]1[C@@H](C)[N+]1(C)C | inactive: 12%
O=P1(N(CCCl)CCCl)OCCCN1Br (stereo not drawn) | inactive: 8.25%
CC(C)OC(=O)N1N=C(OC(C)C)OP12=NC(c1ccccc1)=NN2C (stereo not drawn) | inactive: -11.6%
O=CCCOP(=O)(N(CCCl)CCCl)N1CC1 (stereo not drawn) | inactive: -51.9%
O=[N+]([O-])c1cc([N+](=O)[O-])c(OCC(O)CO)c([N+](=O)[O-])c1 (stereo not drawn) | inactive: 2.2%
COP(=O)(OC)N(C)[Si](C)(C)C | inactive: -33.2%
O=[N+]([O-])c1ccc(NCCSSCCNc2ccc([N+](=O)[O-])cc2[N+](=O)[O-])c([N+](=O)[O-])c1 | inactive: 22.4%
COC(=O)C(CCl)(NC(C)=O)SC(C)=O (stereo not drawn) | inactive: 2.8%
[N-]=[N+]=NCC(O)CN=[N+]=[N-] (stereo not drawn) | inactive: -9.45%
CCN(CC)CCNc1cc(OC)cc2nccnc12 | inactive: 10.3%
O=C(CC[N+](=O)[O-])OCC1OC(OC(=O)CC[N+](=O)[O-])C(OC(=O)CC[N+](=O)[O-])C(O)C1O (stereo not drawn) | inactive: -1.35%
O=[N+]([O-])N=C1NCCN1 | inactive: 10.9%
